According to patent publication US5252463A, “Clipsin, a chymotrypsin-like protease and method of using same” (The Du Pont Merck Pharmaceutical Company, priority 1990, dated 1993):

Molecular target: T1, rat brain clipsin (Rattus norvegicus, UniProt P09650)
T1 sequence (P09650 21-260): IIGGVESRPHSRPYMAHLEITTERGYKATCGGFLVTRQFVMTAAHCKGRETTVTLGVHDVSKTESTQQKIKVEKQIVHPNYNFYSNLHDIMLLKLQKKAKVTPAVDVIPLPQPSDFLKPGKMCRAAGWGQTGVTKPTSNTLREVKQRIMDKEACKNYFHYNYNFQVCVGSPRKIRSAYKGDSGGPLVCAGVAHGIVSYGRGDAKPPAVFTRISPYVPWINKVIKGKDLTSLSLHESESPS

N=C(N)NCCC[C@H](NC(=O)c1ccccc1)C(=O)Nc1ccc([N+](=O)[O-])cc1 [Bz-Arg-p-nitroanilide]
Hydrolysis of the substrate by clipsin (in words): detectable hydrolysis only with the last substrate
